Source: patent US20220062166A1, “Self-Gelling Solutions for Administration of Therapeutics to the Inner Ear” (Spiral Therapeutics, Inc., priority 2019, published 2022)

Columns and labels:
[1] = Dermal sensitization range-finding pilot substudy in guinea pigs; type: in vivo, guinea pig; conditions: topical 50 μl of 200, 400, or 797 μM
Experimental: The test article, LPT99, was in a neutral-pH, buffered, isotonic solution containing a thermoreversible compound. The vehicle control was buffered at neutral pH and formulated as for the test article; it contained POLOXAMER® 407, disodium phosphate dodecahydrate hydrogen, sodium dihydrogen phosphate dihydrate, sodium chloride, and water for injection. […] Charles River, Stone Ridge, N.Y.) were dosed.

[2] = GLP auditory safety study in rats after single TT administration; conditions: single TT dose 200, 400, or 797 μM, 30 μL per ear

COc1ccc2[nH]cc(CCNC(=O)CC3C(=O)N(CCc4ccc(Cl)cc4Cl)CC(=O)N3CCc3cccs3)c2c1 (centres unmarked) [LPT99, 2-(4-(2,4-dichlorophenethyl)-3,6-dioxo-1-(2-(thiophen-2-yl)ethyl)piperazin-2-yl)-N-(2-(5-methoxy-1H-indol-3-yl)ethyl)acetamide]
Draize scores (erythema, edema) [1]: 0 | tolerability [2]: generally well tolerated
